Source: patent publication US7074789B2, “Kinase inhibitors” (Amgen Inc., priority 1999, dated 2006)

Sequences of proteins named here, by UniProt entry; tags and fusion partners are left off. Residues count along the entry.
UniProt P06239, whole entry: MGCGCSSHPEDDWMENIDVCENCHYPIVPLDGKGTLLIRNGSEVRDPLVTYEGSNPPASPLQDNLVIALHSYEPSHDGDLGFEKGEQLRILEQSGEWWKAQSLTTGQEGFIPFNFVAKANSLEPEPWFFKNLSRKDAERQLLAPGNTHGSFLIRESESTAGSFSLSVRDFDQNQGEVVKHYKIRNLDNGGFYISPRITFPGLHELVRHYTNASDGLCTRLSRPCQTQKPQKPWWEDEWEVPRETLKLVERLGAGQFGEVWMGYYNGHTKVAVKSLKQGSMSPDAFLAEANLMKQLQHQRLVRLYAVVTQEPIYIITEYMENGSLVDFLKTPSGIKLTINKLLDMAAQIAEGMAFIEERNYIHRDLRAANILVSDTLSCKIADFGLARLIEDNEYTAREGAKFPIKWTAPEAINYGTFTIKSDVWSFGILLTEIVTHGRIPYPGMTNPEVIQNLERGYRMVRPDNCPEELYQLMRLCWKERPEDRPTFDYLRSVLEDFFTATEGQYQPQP
UniProt P43403, whole entry: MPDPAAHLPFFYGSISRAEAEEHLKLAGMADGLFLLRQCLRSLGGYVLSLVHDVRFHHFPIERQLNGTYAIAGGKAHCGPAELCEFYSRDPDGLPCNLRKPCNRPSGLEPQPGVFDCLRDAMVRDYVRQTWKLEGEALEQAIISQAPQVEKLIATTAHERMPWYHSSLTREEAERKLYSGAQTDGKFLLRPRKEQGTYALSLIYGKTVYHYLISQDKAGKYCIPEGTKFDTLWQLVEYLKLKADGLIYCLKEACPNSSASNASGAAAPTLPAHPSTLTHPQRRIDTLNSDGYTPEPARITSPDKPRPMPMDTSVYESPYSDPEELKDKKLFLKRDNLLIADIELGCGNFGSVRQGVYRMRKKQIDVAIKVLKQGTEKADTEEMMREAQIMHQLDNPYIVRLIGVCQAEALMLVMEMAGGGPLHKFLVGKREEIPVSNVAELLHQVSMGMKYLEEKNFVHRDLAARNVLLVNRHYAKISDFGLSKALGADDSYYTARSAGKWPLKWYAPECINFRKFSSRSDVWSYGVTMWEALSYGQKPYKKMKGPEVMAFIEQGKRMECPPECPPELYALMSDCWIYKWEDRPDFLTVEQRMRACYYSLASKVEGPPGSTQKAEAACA
UniProt Q08881, whole entry: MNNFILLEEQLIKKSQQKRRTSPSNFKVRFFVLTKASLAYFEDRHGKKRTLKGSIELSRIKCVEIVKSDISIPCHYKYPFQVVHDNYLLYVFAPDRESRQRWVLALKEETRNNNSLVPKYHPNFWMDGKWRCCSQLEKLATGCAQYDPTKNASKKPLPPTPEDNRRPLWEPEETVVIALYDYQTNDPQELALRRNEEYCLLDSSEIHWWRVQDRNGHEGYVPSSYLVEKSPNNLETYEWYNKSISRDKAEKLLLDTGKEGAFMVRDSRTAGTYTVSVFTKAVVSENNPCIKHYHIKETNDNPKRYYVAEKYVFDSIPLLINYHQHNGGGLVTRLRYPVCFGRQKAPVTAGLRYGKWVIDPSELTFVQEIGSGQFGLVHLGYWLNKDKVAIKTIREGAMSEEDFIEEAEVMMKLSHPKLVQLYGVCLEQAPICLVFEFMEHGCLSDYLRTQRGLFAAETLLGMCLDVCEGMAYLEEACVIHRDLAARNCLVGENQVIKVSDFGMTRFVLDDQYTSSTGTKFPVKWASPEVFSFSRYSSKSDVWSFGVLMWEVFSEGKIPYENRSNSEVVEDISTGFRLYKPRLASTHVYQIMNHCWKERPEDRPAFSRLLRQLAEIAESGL
UniProt P00533, 25-1210 limits assumed: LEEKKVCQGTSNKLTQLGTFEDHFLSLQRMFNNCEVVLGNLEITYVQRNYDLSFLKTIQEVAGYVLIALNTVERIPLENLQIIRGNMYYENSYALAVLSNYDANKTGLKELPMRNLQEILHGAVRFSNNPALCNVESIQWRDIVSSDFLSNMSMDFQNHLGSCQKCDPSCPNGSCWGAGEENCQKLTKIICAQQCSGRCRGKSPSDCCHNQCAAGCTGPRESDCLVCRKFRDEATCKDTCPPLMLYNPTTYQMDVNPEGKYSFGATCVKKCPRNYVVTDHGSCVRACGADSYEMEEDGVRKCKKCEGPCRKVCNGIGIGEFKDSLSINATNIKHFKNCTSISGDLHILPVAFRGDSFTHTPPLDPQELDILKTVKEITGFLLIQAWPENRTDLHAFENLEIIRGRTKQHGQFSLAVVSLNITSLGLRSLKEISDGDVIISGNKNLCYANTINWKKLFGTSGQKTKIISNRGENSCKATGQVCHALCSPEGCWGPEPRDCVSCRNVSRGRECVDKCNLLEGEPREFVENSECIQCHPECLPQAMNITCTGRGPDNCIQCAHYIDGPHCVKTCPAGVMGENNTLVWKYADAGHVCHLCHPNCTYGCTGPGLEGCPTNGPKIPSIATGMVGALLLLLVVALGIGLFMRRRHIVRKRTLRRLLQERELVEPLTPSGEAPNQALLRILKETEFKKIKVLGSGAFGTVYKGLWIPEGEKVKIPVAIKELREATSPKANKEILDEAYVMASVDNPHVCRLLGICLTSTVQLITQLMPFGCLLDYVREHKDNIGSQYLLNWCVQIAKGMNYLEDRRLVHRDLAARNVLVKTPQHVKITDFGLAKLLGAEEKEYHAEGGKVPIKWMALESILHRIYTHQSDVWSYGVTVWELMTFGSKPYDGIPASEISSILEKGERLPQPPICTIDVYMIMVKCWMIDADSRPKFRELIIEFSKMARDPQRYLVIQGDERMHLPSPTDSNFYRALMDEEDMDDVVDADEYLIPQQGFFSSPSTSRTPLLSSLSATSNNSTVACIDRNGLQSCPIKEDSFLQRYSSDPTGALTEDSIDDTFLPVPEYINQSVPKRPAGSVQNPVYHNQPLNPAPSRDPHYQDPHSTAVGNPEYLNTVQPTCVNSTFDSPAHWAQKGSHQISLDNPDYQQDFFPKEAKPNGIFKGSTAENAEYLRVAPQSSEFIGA
UniProt P35968, 20-1356 limits assumed: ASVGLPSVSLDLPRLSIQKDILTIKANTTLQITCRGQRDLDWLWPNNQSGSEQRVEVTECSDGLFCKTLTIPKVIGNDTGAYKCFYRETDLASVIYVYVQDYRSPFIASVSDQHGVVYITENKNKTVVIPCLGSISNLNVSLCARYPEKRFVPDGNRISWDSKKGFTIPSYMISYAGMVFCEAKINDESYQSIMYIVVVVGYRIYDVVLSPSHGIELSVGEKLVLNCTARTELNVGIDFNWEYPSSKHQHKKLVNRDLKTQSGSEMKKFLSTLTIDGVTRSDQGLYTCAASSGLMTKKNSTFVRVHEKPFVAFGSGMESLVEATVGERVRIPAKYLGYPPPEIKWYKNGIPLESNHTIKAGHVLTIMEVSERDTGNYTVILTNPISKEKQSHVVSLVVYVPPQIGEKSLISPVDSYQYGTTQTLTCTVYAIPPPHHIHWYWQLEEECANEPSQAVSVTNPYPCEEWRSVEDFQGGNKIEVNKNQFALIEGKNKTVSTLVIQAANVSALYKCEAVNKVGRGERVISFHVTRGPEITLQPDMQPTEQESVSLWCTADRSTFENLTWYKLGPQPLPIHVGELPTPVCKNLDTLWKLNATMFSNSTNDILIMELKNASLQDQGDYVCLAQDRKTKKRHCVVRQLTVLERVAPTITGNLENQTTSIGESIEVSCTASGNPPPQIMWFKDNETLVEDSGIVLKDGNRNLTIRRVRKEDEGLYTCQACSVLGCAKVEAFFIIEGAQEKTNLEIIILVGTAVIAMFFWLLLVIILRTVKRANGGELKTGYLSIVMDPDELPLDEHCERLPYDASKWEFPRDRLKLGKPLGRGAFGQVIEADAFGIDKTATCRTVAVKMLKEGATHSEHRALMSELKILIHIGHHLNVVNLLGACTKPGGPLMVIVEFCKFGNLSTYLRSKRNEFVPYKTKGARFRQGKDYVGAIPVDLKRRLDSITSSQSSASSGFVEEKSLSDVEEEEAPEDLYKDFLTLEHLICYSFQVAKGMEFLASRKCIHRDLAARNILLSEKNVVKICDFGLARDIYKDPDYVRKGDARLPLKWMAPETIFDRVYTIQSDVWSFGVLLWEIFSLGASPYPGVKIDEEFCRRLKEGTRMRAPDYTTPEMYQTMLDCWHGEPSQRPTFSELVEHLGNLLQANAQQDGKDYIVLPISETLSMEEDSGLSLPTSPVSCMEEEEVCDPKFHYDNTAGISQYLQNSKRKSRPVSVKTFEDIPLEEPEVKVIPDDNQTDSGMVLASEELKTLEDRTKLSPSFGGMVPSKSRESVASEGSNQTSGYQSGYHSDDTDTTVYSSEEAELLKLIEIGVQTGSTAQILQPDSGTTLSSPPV
UniProt P08581, 25-1390 limits assumed: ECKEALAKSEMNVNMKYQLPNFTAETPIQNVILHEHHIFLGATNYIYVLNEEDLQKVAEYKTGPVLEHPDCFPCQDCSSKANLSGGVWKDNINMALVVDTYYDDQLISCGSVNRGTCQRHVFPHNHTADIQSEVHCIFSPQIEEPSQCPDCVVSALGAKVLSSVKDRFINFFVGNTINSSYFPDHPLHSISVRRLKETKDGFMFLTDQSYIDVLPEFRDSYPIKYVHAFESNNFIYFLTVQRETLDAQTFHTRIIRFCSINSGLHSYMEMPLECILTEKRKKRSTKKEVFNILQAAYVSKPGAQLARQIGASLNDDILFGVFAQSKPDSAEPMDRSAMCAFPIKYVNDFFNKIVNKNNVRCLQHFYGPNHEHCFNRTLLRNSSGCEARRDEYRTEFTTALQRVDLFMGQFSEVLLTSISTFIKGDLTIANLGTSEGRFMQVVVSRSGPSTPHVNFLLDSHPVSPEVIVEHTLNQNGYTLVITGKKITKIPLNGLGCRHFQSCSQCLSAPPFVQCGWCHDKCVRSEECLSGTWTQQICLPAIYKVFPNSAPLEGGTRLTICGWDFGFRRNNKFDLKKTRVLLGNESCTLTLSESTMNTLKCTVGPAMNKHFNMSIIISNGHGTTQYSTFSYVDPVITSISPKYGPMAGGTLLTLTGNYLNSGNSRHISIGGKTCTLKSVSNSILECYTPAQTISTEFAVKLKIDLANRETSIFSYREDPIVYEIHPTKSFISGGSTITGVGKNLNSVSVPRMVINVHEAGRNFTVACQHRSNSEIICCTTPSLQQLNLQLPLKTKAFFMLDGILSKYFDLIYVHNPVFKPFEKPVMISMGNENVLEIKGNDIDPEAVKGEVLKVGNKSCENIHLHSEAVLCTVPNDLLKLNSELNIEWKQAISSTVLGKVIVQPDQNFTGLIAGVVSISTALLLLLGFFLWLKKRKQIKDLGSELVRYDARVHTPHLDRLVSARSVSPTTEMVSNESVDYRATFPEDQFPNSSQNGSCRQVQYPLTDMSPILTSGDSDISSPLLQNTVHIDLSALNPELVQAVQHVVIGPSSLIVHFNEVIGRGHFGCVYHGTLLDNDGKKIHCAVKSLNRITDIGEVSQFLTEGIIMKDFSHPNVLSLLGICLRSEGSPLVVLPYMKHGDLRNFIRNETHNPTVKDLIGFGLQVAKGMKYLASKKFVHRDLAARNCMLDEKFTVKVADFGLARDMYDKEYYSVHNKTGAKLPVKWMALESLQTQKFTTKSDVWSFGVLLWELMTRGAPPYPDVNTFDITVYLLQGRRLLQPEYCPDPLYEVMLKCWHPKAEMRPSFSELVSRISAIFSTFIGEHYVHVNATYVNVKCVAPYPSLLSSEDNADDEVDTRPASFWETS
UniProt Q9Y243, whole entry: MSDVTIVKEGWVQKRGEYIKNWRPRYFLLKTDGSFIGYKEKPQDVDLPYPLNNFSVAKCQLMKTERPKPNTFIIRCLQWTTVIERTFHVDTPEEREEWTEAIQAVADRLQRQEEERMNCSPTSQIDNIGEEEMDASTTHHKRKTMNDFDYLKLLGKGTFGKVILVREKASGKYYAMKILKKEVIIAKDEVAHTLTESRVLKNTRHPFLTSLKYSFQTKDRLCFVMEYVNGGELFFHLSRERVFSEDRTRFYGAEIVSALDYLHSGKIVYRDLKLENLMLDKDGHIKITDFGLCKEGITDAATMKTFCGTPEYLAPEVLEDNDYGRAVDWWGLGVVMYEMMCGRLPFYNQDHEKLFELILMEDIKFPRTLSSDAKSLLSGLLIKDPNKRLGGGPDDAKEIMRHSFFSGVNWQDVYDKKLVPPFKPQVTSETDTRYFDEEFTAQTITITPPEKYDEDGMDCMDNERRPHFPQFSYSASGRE

Tests used:
[1] = molecular target: Lck (Homo sapiens, UniProt P06239); test: Kinase inhibition assay (33P transfer), Lck; type: biochemical; conditions: Table 3
[2] = molecular target: Zap-70 (Homo sapiens, UniProt P43403); test: Kinase inhibition assay (33P transfer), Zap-70; type: biochemical; conditions: Table 3
[3] = molecular target: Itk (Homo sapiens, UniProt Q08881); test: Kinase inhibition assay (33P transfer), Itk; type: biochemical; conditions: Table 3
[4] = molecular target: EGFR (Homo sapiens, UniProt P00533); test: Kinase inhibition assay (33P transfer), EGFR; type: biochemical; conditions: Table 2, kinase inhibition class
[5] = molecular target: Kdr (Homo sapiens, UniProt P35968); test: Kinase inhibition assay (33P transfer), Kdr; type: biochemical; conditions: Table 3
[6] = molecular target: c-Met (Homo sapiens, UniProt P08581); test: Kinase inhibition assay (33P transfer), c-Met; type: biochemical; conditions: Table 2, kinase inhibition class
[7] = molecular target: AKT (Homo sapiens, UniProt Q9Y243); test: Kinase inhibition assay (33P transfer), AKT; conditions: Table 2, kinase inhibition class

For O=c1[nH]c2ccccc2n1-c1ncnc(Nc2cccc(NS(=O)(=O)c3ccc([N+](=O)[O-])cc3)c2)n1, the Lck-1 [1] was “E (E>4.5 ug/mL)”, the Zap-1 [2] was “E (E>4.5 ug/mL)” and the Itk-1 [3] was “E (E>4.5 ug/mL)”. For the same compound, the EGFR-1 [4] was “B (B>0.4 and <2.4 ug/mL)”, the KDR-1 [5] was “B (B>0.4 and <2.4 ug/mL)” and the Met-1 [6] was “C (C>2.4 and <3.5 ug/mL)”. The AKT3-1 [7] was “C (C>2.4 and <3.5 ug/mL)”.
